Measured values published in PubChem BioAssay AID624483 (NMMLSC, 2012).
Screen size: about 360,000 compounds; about 11,000 (3.1%) were called active. Only results without a clear call are listed here; the source files them as inconclusive. Rule as the data show it: active = fluorescence intensity above about 16000; inconclusive = no clear call, values can overlap the other calls; inactive = below that.

Test: counter-screen for toxin protease inhibitors: compound fluorescence, primary screen, artefact control for toxin protease inhibitor project, biochemical, multiplex microsphere, HTS (AID 624483)
Conditions: compound autofluorescence counterscreen, microsphere flow cytometry
With `Clc1n[nH]nc1-c1nn[nH][15n]1` the outcome was “inconclusive”. For `COc1ccccc1CNC(=O)COC(=O)C(O)(c1ccccc1)c1ccccc1`, the outcome was “inconclusive”. In the case of `O=P1(N(CCCl)CCCl)OCCC2CCCCN21` (stereo not drawn), the outcome was “inconclusive”.
